Patent publication US20090036474A1, “Quinazoline derivatives for use against cancer” (priority 2004, published 2009)

The chains behind the UniProt entries cited, without tags or fusion partners. Residues count along the entry.
UniProt P09619, 33-1106 limits assumed: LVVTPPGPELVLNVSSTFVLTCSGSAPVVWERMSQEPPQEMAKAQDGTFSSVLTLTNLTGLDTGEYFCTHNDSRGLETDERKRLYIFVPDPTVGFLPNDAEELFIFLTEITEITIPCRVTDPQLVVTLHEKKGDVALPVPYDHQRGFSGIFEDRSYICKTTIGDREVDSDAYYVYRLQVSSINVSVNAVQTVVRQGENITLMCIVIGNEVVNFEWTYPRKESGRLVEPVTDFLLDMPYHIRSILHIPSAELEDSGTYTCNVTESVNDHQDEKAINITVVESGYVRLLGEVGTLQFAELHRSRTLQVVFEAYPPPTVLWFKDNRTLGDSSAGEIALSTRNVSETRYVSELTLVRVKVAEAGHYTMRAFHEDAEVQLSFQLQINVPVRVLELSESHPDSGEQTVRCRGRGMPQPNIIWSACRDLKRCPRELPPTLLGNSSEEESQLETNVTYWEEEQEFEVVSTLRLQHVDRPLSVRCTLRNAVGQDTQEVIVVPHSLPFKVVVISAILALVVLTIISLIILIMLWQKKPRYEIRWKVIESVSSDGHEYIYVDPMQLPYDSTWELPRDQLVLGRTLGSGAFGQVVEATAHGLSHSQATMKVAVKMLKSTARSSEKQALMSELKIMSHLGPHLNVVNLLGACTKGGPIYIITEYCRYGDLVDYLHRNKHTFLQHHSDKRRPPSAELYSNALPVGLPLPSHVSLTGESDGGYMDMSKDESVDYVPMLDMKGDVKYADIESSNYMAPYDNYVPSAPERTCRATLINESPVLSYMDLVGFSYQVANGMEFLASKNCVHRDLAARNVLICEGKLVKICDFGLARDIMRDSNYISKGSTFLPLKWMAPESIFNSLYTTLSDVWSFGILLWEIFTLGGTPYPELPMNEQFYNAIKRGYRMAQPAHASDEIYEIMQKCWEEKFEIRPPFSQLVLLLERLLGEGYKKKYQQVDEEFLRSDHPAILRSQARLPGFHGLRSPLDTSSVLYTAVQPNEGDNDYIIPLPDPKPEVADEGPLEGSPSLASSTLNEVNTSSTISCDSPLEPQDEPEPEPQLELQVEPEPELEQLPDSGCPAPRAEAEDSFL
UniProt P09619, 554-1106 limits assumed: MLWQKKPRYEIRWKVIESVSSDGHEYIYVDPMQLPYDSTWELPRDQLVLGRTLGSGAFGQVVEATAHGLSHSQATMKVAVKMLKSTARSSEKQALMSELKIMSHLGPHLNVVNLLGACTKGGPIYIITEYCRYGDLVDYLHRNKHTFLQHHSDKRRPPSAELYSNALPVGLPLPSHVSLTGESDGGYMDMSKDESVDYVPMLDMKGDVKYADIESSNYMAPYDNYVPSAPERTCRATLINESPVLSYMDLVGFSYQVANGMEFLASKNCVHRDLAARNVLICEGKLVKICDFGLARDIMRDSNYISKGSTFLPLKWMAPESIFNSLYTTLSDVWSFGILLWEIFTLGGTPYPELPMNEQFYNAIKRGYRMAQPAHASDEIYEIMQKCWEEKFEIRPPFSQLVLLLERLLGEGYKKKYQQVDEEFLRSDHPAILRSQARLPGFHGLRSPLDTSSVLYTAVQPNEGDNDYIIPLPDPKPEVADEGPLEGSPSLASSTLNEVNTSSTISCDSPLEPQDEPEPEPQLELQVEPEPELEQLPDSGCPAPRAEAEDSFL
UniProt P35968, 786-1356 limits assumed: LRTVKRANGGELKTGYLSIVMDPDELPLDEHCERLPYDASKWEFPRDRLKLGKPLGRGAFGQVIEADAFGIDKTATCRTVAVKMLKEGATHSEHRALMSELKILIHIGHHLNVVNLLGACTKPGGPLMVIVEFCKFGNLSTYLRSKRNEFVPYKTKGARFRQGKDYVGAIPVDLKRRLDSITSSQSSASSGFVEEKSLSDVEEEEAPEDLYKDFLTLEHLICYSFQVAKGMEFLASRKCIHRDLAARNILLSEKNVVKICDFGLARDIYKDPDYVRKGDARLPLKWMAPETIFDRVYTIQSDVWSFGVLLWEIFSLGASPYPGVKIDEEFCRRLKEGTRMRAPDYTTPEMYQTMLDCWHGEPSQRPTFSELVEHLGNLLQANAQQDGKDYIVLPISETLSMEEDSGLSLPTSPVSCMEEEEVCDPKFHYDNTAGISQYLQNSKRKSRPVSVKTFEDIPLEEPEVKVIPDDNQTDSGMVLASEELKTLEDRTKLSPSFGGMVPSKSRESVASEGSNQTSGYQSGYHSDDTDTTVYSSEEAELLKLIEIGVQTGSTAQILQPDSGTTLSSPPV
UniProt P16234, 550-1089 limits assumed: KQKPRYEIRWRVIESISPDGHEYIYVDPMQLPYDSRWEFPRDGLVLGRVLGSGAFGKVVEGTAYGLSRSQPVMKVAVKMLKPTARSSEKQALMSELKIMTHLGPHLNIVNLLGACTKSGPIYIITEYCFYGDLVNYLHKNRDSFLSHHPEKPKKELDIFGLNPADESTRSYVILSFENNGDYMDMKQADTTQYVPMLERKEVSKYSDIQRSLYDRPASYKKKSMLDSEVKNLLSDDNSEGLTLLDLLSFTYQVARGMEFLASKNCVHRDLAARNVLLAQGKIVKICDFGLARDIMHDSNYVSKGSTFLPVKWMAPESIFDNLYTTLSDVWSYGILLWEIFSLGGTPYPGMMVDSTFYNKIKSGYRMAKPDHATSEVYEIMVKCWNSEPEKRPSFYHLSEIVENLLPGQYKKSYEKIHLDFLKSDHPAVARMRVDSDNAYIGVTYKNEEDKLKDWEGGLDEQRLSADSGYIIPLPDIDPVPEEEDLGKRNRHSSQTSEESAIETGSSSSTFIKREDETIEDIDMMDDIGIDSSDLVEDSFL

Assays:
[1] = molecular target: phospho-Tyr751 PDGFRβ (Homo sapiens, UniProt P09619); assay: In vitro phospho-Tyr751 PDGFRβ ELISA assay in MG63 osteosarcoma cells, Test (b); conditions: read-out: IC50 versus phospho-Tyr751 PDGFRβ, MG63 cells stimulated with PDGFBB
Method: This assay uses a conventional ELISA method to determine the ability of test compounds to inhibit phosphorylation of tyrosine in PDGFRβ.
An MG63 osteosarcoma cell line [American Type Culture Collection (ATCC) CCL 1427] was routinely maintained at 37° C. with 7.5% CO2 in Dulbecco's modified Eagle's growth medium (DMEM; Sigma-Aldrich; Catalogue No. D6546) containing 10% foetal calf serum (FCS; Sigma-Aldrich; Catalogue No. F7524) and 2 mM L-glutamine (Invitrogen Ltd., Paisley, UK; Catalogue No. 25030-024).
For the assay, the cells were detached from the culture flask using a trypsin/ethylenediaminetetraacetic acid (EDTA) mixture (Invitrogen Ltd.; Catalogue No. 15400-054) and resuspended in test media comprising DMEM without phenol red (Sigma-1-Aldrich; Catalogue No. D5921) containing 1% charcoal-stripped-foetal calf serum (FCS) (Sigma-Aldrich; Catalogue No. F7524, stripped by incubation with dextran-coated activated charcoal at 55° C. for 30 minutes with continuous stirring followed by removal of the charcoal by centrifugation and filter sterilisation) and 2 mM L-glutamine (Invitrogen Ltd., Catalogue No. 25030-024) to give 6×10^4 cells per ml. Aliquots (100 μl) were seeded into each of the wells of columns 2-12 (excluding column 1) and rows B-G (excluding rows A and H) of a clear 96 well tissue culture plate (Corning Life Sciences, Koolhovenlaan, The Netherlands; Catalogue No. 3595) to give a density of about 6000 cells per well. Aliquots (100 μl) of culture media were placed in the outer wells to minimise edge effects. The cells were incubated overnight at 37° C. with 7.5% CO2 to allow the cells to adhere to the wells.
Test compounds were prepared as 10 mM stock solutions in DMSO and serially diluted as required with test media to give a range of concentrations. Aliquots (50 μl) of each compound concentration were added to the cells in each well. Control cells received a dilution of DMSO only. The cells were incubated for 90 minutes at 37° C. with 7.5% CO2.
The resultant cells were stimulated with PDGFBB using the following procedure. A lyophilised powder of PDGFBB, (Sigma-Aldrich; Catalogue No. P4306) was mixed with 4 mM aqueous hydrochloric acid containing 0.1% filter-sterilised BSA to provide a stock solution of 10 μg/ml of PDGFBB. A dilution of this stock solution into test medium provided a 200 ng/ml PDGFBB solution. Aliquots thereof (50 μl) were added to compound treated cells and to one set of control wells to give the “maximum” control. The “minimum” controls received media only. The cells were incubated at 37° C. with 7.5% CO2 for 5 minutes. […]

[2] = molecular target: KDR tyrosine kinase (Homo sapiens, UniProt P35968); assay: In vitro enzyme assay (ELISA), Test (a), KDR; conditions: read-out: IC50 versus KDR tyrosine kinase, ATP 8 μM
Method: (§1) The ability of test compounds to inhibit the phosphorylation of a tyrosine containing polypeptide substrate by the tyrosine kinase enzymes PDGFRα, PDGFRβ and KDR was assessed using conventional ELISA assays. DNA encoding the PDGFRα, PDGFRβ or KDR receptor cytoplasmic domains may be obtained by total gene synthesis (International Biotechnology Lab., 1987, 5(3), 19-25) or by cloning. The DNA fragments may be expressed in a suitable expression system to obtain polypeptide with tyrosine kinase activity. For example, PDGFRα, PDGFRβ and KDR receptor cytoplasmic domains, obtained by expression of recombinant protein in insect cells, can be shown to display intrinsic tyrosine kinase activity. In the case of the VEGF receptor KDR (Genbank Accession No. L04947), a DNA fragment encoding most of the cytoplasmic domain, commencing with methionine 806 and including the termination codon may be cloned into a baculovirus transplacement vector [for example pAcYM1 (see The Baculovirus Expression System: A Laboratory Guide, L. A. King and R. D. Possee, Chapman and Hall, 1992) or pAc360 or pBlueBacHis (available from Invitrogen Corporation)]. This recombinant construct may be co-transfected into insect cells [for example Spodoptera frugiperda 21(Sf21) or Spodoptera frugiperda 9(Sf9)] with viral DNA (for example Pharmingen BaculoGold) to prepare recombinant baculovirus. Details of the methods for the assembly of recombinant DNA molecules and the preparation and use of recombinant baculovirus can be found in standard texts, for example Sambrook et al., 1989, Molecular cloning—A Laboratory Manual, 2nd edition, Cold Spring Harbour Laboratory Press and O'Reilly et al., 1992, Baculovirus Expression Vectors—A Laboratory Manual, W. H. Freeman and Co, New York).
For expression, Sf9 cells were infected with plaque-pure KDR recombinant virus and harvested 48 hours later. Harvested cells were washed with ice cold phosphate buffered saline solution (PBS) containing 10 mM sodium phosphate pH7.4 buffer, 138 mM sodium chloride and 2.7 mM potassium chloride) and resuspended in ice cold cell diluent comprising 20 mM Hepes pH7.5 buffer, 150 mM sodium chloride, 10% v/v glycerol, 1% v/v Triton X100, 1.5 mM magnesium chloride, 1 mM ethylene glycol-bis(βaminoethyl ether) N,N,N′,N′-tetraacetic acid (EGTA) and 1 mM PMSF (phenylmethylsulphonyl fluoride) [the PMSF is added just before use from a freshly-prepared 100 mM solution in methanol] using 1 ml cell diluent per 10 million cells. The suspension was centrifuged for 10 minutes at 13,000 rpm at 4° C. The supernatant (stock enzyme solution) was removed and stored in aliquots at −70° C.
A substrate solution [100 μl of a 2 μg/ml solution of the poly-amino acid Poly(Glu, Ala, Tyr) 6:3:1 (Sigma-Aldrich Company Ltd., Poole, Dorset; Catalogue No. P3899) in phosphate buffered saline (PBS)] was added to each well of a number of Nunc 96-well MaxiSorp immunoplates (Nunc, Roskilde, Denmark; Catalogue No. 439454) and the plates were sealed and stored at 4° C. for 16 hours. The excess of substrate solution was discarded and the wells were washed in turn with PBS containing 0.05% v/v Tween 20 (PBST; 300 μl/well) and twice with Hepes pH7.4 buffer (50 mM, 300 μl/well) before being blotted dry.
Each test compound was dissolved in DMSO and diluted with a 10% solution of DMSO in distilled water to give a series of dilutions (from 40 μM to 0.0012 μM). Aliquots (25 μl) of each dilution of test compound were transferred to wells in the washed assay plates. […]

[3] = molecular target: PDGFRα tyrosine kinase (Homo sapiens, UniProt P16234); assay: In vitro enzyme assay (ELISA), Test (a), PDGFRα; conditions: read-out: IC50 versus PDGFRα tyrosine kinase, ATP 14 μM
Method: as §1, with “Details of the methods for the assembly of recombinant DNA molecules and the preparation and use of recombinant baculovirus can be found in standard texts, for example Sambrook et al., 1989, Molecular cloning—A Laboratory Manual, 2nd edition, Cold Spring Harbour Laboratory Press and O'Reilly et al., 1992, Baculovirus Expression Vectors—A Laboratory Manual, W. H. Freeman and Co, New York).” left out

[4] = molecular target: PDGFRβ tyrosine kinase (Homo sapiens, UniProt P09619); assay: In vitro enzyme assay (ELISA), Test (a), PDGFRβ; conditions: read-out: IC50 versus PDGFRβ tyrosine kinase, ATP 2.8 μM
Method: as §1, with “Details of the methods for the assembly of recombinant DNA molecules and the preparation and use of recombinant baculovirus can be found in standard texts, for example Sambrook et al., 1989, Molecular cloning—A Laboratory Manual, 2nd edition, Cold Spring Harbour Laboratory Press and O'Reilly et al., 1992, Baculovirus Expression Vectors—A Laboratory Manual, W. H. Freeman and Co, New York).” left out

Structure (SMILES)	IC50 [1] [nM]	IC50 [2] [nM]	IC50 [3] [nM]	IC50 [4] [nM]
COc1cc2c(Oc3cnn(CC(=O)Nc4cccc5c4OCCO5)c3)ncnc2cc1OCCO	3	25	–	–
COc1cc2ncnc(Oc3cnn(CC(=O)Nc4cc(C)cc(CNC5CC5)c4)c3)c2cc1OC	–	10	240	50
CCOc1cc2ncnc(Oc3cnn(CC(=O)Nc4cccc(CO)c4)c3)c2cc1OC	1	35	–	–
COc1cc2ncnc(Oc3cnn(CC(=O)Nc4ccc5c(c4)OCCN5C)c3)c2cc1OC	1	1	–	–
COc1cc2ncnc(Oc3cnn(CC(=O)Nc4ccc(Cl)c(CN(C)C)c4)c3)c2cc1OC	0.5	10	170	100
